The test system of the assay is apomorphine-induced climbing. Put plainly: climbing mice assay (apomorphine-induced climbing, antipsychotic activity). Format: in vivo, CK-1 male mice. Conditions: intraperitoneal, 30 minutes prior to apomorphine 1.5 mg/kg subcutaneously, climbing scored at 10, 20 and 30 minutes, linear regression.

The source of these data is patent US4374245A, “8-[3-(6-Fluoro-1,2-benzisoxazol-3-yl)propyl]- 1-phenyl-1,3,8-triazaspiro[4.5]decan-4-one” (Hoechst-Roussel Pharmaceuticals Inc., priority 1982, dated 1983).

SMILES strings stand for the structures.

`Cl.O=C1NCN(c2ccccc2)C12CCN(CCCc1noc3cc(F)ccc13)CC2`: the “Antipsychotic Activity ED50” value is 0.10 mg/kg.
